Shown are actives, neighbours in structure and some others; about 0.46% of the full set was active somewhere.
HCMV UL50-53 inh = disrupts HCMV UL50-UL53 complex binding. HTRF UL50-UL53 interaction, normalized percent inhibition. inhibition, % (concentration not given with the values). actives 0.15% (n = 190,000). AID 1918969; in the data active means inhibition above about 27%, passing the limit was not always enough
GIV-Gai inh = blocks GIV peptide binding to rat Galpha-i3. P08753. Galpha-i3/FITC-GIV peptide fluorescence polarization, 90 min; hits give low values; scaled: aluminum fluoride 0%, vehicle 100%. percent of control (FP), % (concentration not given with the values). actives 0.42% (n = 210,000). AID 1224905;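 active = replicate mean at 85% of control or lower, very high polarization wells dropped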;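 also: wells of about 15 µL received 100 nL stock; the first replicate is given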
GIV Gai FP conf = GIV-Galpha-i3 inhibition, FP confirmation. FITC-GIV peptide binding to Galphai3, fluorescence polarization; hits give low values. fluorescence polarization, mP at 100 µM. actives 38% (n = 580). AID 1259350. shares compounds with GIV-Gai inh;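 active means inhibition score of 15 or more, meaning 100 minus mean polarization as percent of control over three replicates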;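 further: lower mP means peptide displaced from Galphai3 so more inhibition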
GIV-Gai AS conf = confirmation of inhibitors of GIV binding to human Galpha-i3; shares compounds with GIV-Gai inh; AlphaScreen Galphai3-GIV binding, purified proteins, 90 min; hits give low values; AlphaScreen counts at 100 µM; actives 39% (n = 580);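 active means inhibition score at or above a set limit, where the score is 100 minus the three-replicate mean percent of control signal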
* hit, by the source's call; ! = a repeat was not active.

Results for COc1ccc(/C(O)=C/c2nc3cc(C)ccc3oc2=O)c(OC)c1 ?
HCMV UL50-53 inh: -23.3; GIV-Gai inh: 53.9*; GIV Gai FP conf: 147; GIV-Gai AS conf: 40985

What do the screens show for `CN(C)S(=O)(=O)c1ccc(-c2noc(C(=O)NCC3CCCO3)n2)cc1` (stereo unspecified)?
GIV-Gai inh: 104.7

What do the screens show for `CCn1nc(N)c2c(O)[nH]c(=O)cc21`?
GIV-Gai inh: 41.0*; GIV Gai FP conf: 34.5*; GIV-Gai AS conf: 25115*

Results for CCN(CC)C(=O)CSc1nc(N)cc(=O)[nH]1 ?
HCMV UL50-53 inh: -10.6

What do the screens show for `COc1ccc(N2C(=O)c3c(C)nc4ccccc4c3C2=O)cc1OC`?
HCMV UL50-53 inh: -29.4; GIV-Gai inh: 102.9

How did COc1ccc(N2C(=O)c3c(C)nc4ccccc4c3C2=O)cn1 do in these assays?
HCMV UL50-53 inh: -38.5; GIV-Gai inh: 84.3*; GIV Gai FP conf: 54.6; GIV-Gai AS conf: 42415

What do the screens show for `CC(NCc1ccc(F)cc1)C12CC3CC(CC(C3)C1)C2` (stereo unspecified)?
GIV-Gai inh: 88.4; GIV Gai FP conf: 62.5; GIV-Gai AS conf: 43107

How did CC(NCc1ccc(F)cc1)C(=O)NC1CCCCC1 (stereo unspecified) do in these assays?
HCMV UL50-53 inh: -18.1; GIV-Gai inh: 100.5

What do the screens show for `NC(=O)NC(=O)c1nc2nonc2[nH]c1=O`?
HCMV UL50-53 inh: 2.8; GIV-Gai inh: 44.4*; GIV Gai FP conf: 42*; GIV-Gai AS conf: 23047

How did O=c1[nH]c2nonc2nc1/C=C(\O)c1ccccc1 do in these assays?
HCMV UL50-53 inh: -79.7; GIV-Gai inh: 100.6

How did Cc1cc(=O)oc2cc(OCC(=O)Nc3ccccc3)ccc12 do in these assays?
HCMV UL50-53 inh: -3.6; GIV-Gai inh: 97.6

How did CC1=CC(=C2N=C(c3ccccc3)OC2=O)C=C(C)O1 do in these assays?
HCMV UL50-53 inh: -15.8; GIV-Gai inh: 73.4*; GIV Gai FP conf: 71.6; GIV-Gai AS conf: 40445

What do the screens show for `O=C1OC(c2ccccc2)=N/C1=C1/OC(=O)c2ccccc21`?
HCMV UL50-53 inh: -20.0

Results for CN(Cc1ccccc1)c1ccc(-c2nc(-c3ccc(F)cc3)no2)nn1 ?
HCMV UL50-53 inh: -32.1; GIV-Gai inh: 102.5

What do the screens show for `COc1cc(NC(=O)COC(=O)CC2(CC3=NS(=O)(=O)c4ccccc4N3)CCCC2)cc(OC)c1`?
GIV-Gai inh: 97.3

3 structures from above, ordered by heavy-atom count, low to high:
What do the screens show for `O=C1OC(c2ccccc2)=N/C1=C1/OC(=O)c2ccccc21`?
HCMV UL50-53 inh: -20.0

Results for COc1ccc(/C(O)=C/c2nc3cc(C)ccc3oc2=O)c(OC)c1 ?
HCMV UL50-53 inh: -23.3; GIV-Gai inh: 53.9*; GIV Gai FP conf: 147; GIV-Gai AS conf: 40985

Results for CN(Cc1ccccc1)c1ccc(-c2nc(-c3ccc(F)cc3)no2)nn1 ?
HCMV UL50-53 inh: -32.1; GIV-Gai inh: 102.5

The listing continues.
How did CCn1nc(C(=O)Nc2ccc(OC)cc2)c2ccccc2c1=O do in these assays?
HCMV UL50-53 inh: -34.7

How did Oc1ccc(Cl)cc1C=Nc1cccc2nsnc12 do in these assays?
HCMV UL50-53 inh: 26.4; GIV-Gai inh: 73.9*; GIV Gai FP conf: 58.3*; GIV-Gai AS conf: 6922*

How did Cc1ccc(C=Nc2cccc3nsnc23)c(O)c1 do in these assays?
HCMV UL50-53 inh: -32.7; GIV-Gai inh: 101.3

Results for O=C(O)c1cccc(-n2cccc2C=C2C(=O)c3ccccc3C2=O)c1 ?
GIV-Gai inh: 107.5

What do the screens show for `O=C1C(=Cc2cccn2-c2ccc(O)cc2)C(=O)c2ccccc21`?
GIV-Gai inh: 72.2*; GIV Gai FP conf: 6.07*; GIV-Gai AS conf: 19282*

What do the screens show for `CCn1nc(CO)c2c1CCN(Cc1scnc1C)C2`?
GIV-Gai inh: 106.1

How did CCCCn1c(SCc2nc(-c3ccc(C)cc3)no2)nc2cc3c(cc2c1=O)OCO3 do in these assays?
GIV-Gai inh: 108.1

What do the screens show for `COc1ccc(C(=O)NCc2ccoc2C(=O)O)cc1`?
HCMV UL50-53 inh: -12.8

How did COc1ccccc1OCc1ccoc1C(=O)O do in these assays?
HCMV UL50-53 inh: -5.2; GIV-Gai inh: 81.8*; GIV Gai FP conf: 68.6; GIV-Gai AS conf: 18278*

Results for Cc1ccc(C(=O)Nc2ccc(S(=O)(=O)O)c3cc(S(=O)(=O)O)cc(S(=O)(=O)O)c23)cc1NC(=O)c1cccc(NC(=O)Nc2cccc(C(=O)Nc3cc(C(=O)Nc4ccc(S(=O)(=O)O)c5cc(S(=O)(=O)O)cc(S(=O)(=O)O)c45)ccc3C)c2)c1 ?
HCMV UL50-53 inh: -50.1; GIV-Gai inh: 76.2*!; GIV Gai FP conf: 61.2*; GIV-Gai AS conf: 12181*

Results for Cc1ccc(C)c(NC(=O)c2cccc(S(=O)(=O)N3CCCC3)c2)c1 ?
HCMV UL50-53 inh: 9.5

How did Cc1cn(C(=O)c2ccccc2)c(=O)[nH]c1=O do in these assays?
HCMV UL50-53 inh: -7.5; GIV-Gai inh: 106.1

What do the screens show for `COc1ccc(S(=O)(=O)N(CC(=O)NCCc2ccc(OC)c(OC)c2)c2ccc(C)cc2)cc1`?
GIV-Gai inh: 109.5

What do the screens show for `CC(=O)N1CCC(Oc2nccnc2N(C)C)C1` (stereo unspecified)?
GIV-Gai inh: 99.1

From PubChem BioAssay
